Data as given in article PMC10879876, “Activatable prodrug for controlled release of an antimicrobial peptide via the proteases overexpressed in Candida albicans and Porphyromonas gingivalis” (Theranostics, 2024).

The chains behind the UniProt entries cited, without tags or fusion partners. Residues count along the entry.
UniProt P95493, 230-736: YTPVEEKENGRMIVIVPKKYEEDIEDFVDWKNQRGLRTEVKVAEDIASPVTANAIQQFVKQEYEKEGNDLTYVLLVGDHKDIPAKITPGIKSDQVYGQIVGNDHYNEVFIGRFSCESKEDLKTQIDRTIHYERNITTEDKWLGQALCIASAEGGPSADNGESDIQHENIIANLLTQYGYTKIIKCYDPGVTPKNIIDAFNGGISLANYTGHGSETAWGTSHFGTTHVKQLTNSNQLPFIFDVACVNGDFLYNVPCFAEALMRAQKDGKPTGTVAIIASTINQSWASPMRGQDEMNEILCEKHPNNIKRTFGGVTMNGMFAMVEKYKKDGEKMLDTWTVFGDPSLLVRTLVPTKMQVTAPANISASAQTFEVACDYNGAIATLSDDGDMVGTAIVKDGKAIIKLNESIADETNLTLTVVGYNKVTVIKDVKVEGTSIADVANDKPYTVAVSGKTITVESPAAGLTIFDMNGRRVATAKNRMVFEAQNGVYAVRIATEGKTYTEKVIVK

Molecular target: RgpB (Porphyromonas gingivalis, UniProt P95493)
Details: RgpB [E]active 200 nM, Michaelis-Menten fit

Ala – Gly – Pro – Arg – Ile – Asp – Lys [RgpB FRET Probe]
Km: 7 µM | kcat: 0.501 s⁻¹
